# Only a part is listed here, and it is no random draw. Calls of active or inactive are those of the source.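 How the source made its calls: active means activation factor of at least 2 at 20 µM; inactive means the rest.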
# Tested on: intestinal alkaline phosphatase [Mus musculus]
# Assay: mouse intestinal phosphatase enzyme activation – biochemical, luminescence, uHTS, primary screen (AID 2805)
# Conditions: muIAP, CDP-Star luminescence, 30 min; at 10 µM; stronger effect = higher value; 1 = vehicle-only enzyme signal, 0 = enzyme-free wells
# Procedure, shortened: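 Assay system: mouse IAP enzyme; Reagent: CDP-Star chemiluminescent phosphatase substrate; Compound: DMSO-dissolved test compounds; Incubation: 30 min, room temperature; Technique: luminescence from enzymatic CDP-Star hydrolysis; Controls: DMSO-only wells and no-enzyme negative control.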
row,SMILES,activation factor
1,Cc1ccc(OP(=O)(Nc2ccccn2)Oc2ccc(C)cc2)cc1,inactive: 1.05
2,CC(=O)NC(SC(=S)N(CC(C)C)CC(C)C)C(Cl)(Cl)Cl (configuration not stated),inactive: 1.04
3,COC(=O)c1cc2c(s1)N=C(c1ccccc1)N(C)P2(=O)N1CCOCC1 (configuration not stated),inactive: 1.03
4,CCC(=O)N1C2C3N(C(=O)CC)C1C1N(C(=O)CC)C(C(N1C(=O)CC)N3C(=O)CC)N2C(=O)CC,inactive: 0.956
5,O=C(OC1CN2CCC1CC2)c1ccccc1 (configuration not stated),inactive: 1.06
6,Cc1ccc(NP(=O)(Oc2ccccc2F)Oc2ccccc2F)nc1,inactive: 1.08
7,CN(C(=O)Cc1ccc(Cl)c(Cl)c1)[C@H]1CCCC[C@@H]1N1CCCC1,inactive: 1.02
8,CCOP(=O)(Nc1ccccc1)OCC,inactive: 0.905
9,Cc1cc(SC(NC(=O)c2ccc(F)cc2)C(Cl)(Cl)Cl)ncn1 (configuration not stated),inactive: 1.04
10,O=C(O)c1ccccc1[As](=O)(O)O,inactive: 0.955
11,CC(=O)Nc1ccc([As](=O)(O)O)cc1,inactive: 1.02
12,O=P(Nc1nc2ccc(Cl)cc2s1)(c1ccccc1)c1ccccc1,inactive: 1.04
13,CCN(N=Nc1nonc1N)c1nonc1N,inactive: 0.844
14,O=[N+]([O-])c1cc([N+](=O)[O-])c(CCN2CCOCC2)c([N+](=O)[O-])c1,inactive: 0.772
15,Cc1ccc(OP(=O)(Nc2nccs2)Oc2ccc(C)cc2)cc1,inactive: 0.892
16,COc1ccccc1OP(=O)(Nc1ccc(C)cn1)Oc1ccccc1OC,inactive: 0.945
17,Clc1ccc(Cl)c(NC2=NCC(CBr)S2)c1 (configuration not stated),inactive: 1.02
18,CN1CCCC(OC(=O)C(c2ccccc2)c2ccccc2)C1 (configuration not stated),inactive: 0.943
19,NC(=O)c1cc([N+](=O)[O-])cc([N+](=O)[O-])c1N,inactive: 1.08
20,Cc1ccc(N/C(=N/P(=O)(N2CCOCC2)N2CCOCC2)N2CCOCC2)cc1,inactive: 0.884
21,CN(C(=O)Cc1ccc(Cl)c(Cl)c1)[C@H]1CCCC[C@H]1N1CCCC1,inactive: 0.97

row,SMILES,activation factor
1,CC(C)CC(=O)NC(Sc1ccc(Cl)cc1)C(Cl)(Cl)Cl (configuration not stated),inactive: 1.07
2,Nc1cc(N)c2nonc2c1[N+](=O)[O-],inactive: 0.878
3,Cc1c2non([O-])c-2c(C)[n+](=O)[n+]1[O-],inactive: 1.02
4,O=C(NC(Sc1ccncn1)C(Cl)(Cl)Cl)c1ccccc1 (configuration not stated),inactive: 1.08
5,Oc1ccccc1CNc1ccccn1,inactive: 1.03
6,O=[N+]([O-])c1cccc2n[nH]nc12,inactive: 0.937
7,CC(=O)N1C2C3N(C(C)=O)C1C1N(C(C)=O)C(C(N1C(C)=O)N3C(C)=O)N2C(C)=O,inactive: 0.952
8,CCc1nc2c(n1)c1c(non1O)c1c2no[n+]1[O-],inactive: 0.939
9,O=[N+]([O-])c1cc([N+](=O)[O-])c(CCNc2ccccc2)c([N+](=O)[O-])c1,inactive: 0.878
10,Cc1ccc(NP(=O)(Oc2ccccc2)Oc2ccccc2)nc1,inactive: 1.18
11,COc1ccc(C2=NCC(CBr)S2)cc1 (configuration not stated),inactive: 1.06
12,CN(C)C(=O)OCCc1n(C)cc[n+]1C,inactive: 0.965
13,CC(C)=N/N=C(\N)N[N+](=O)[O-],inactive: 1.03
14,CC1CCN(C(=O)Oc2c(Cl)cc(Cl)c3cccnc23)CC1,inactive: 0.964
15,C[N+]1=C2C=CC=CC=C2SC12C([N+](=O)[O-])=CC([N+](=O)[O-])=C[C-]2[N+](=O)[O-] (configuration not stated),inactive: 0.396
16,Nc1ccc([As](=O)(O)c2ccc(N)cc2)cc1,inactive: 0.982
17,CCN(/C(=N/P(=O)(N1CCOCC1)N1CCOCC1)N1CCOCC1)c1ccc(OC)cc1,inactive: 0.968
18,O=C(Nc1cc([As](=O)(O)O)ccc1O)c1ccccc1,inactive: 0.833
19,O=[N+]([O-])c1cccc(NC2=NCC(CBr)S2)c1 (configuration not stated),inactive: 0.926
20,CC(C)(C)C(=O)NC(Sc1ccncn1)C(Cl)(Cl)Cl (configuration not stated),inactive: 1.05
21,O=[N+]([O-])c1ncn(CCn2ncnc2[N+](=O)[O-])n1,inactive: 0.983

# Reference: PubChem BioAssay AID2805 (Sanford-Burnham Center for Chemical Genomics, 2010)
